From patent EP4636093A1, “TARGETING MAPK-ERK PATHWAY FOR ENHANCING NUCLEIC ACID DELIVERY” (priority 2024, dated 2025)

System: T cells
Assay type: cell-based, Human

For Deucravacitinib, the viability (400 nM, CD4-LV and CD8-LV, 3 days after transduction, three donors) was “without compromising viability” and the “effect on T cell viability” value (various doses, all vector-treated groups compared to untreated samples) was “no negative effect”.
